## Binding of CDR-mutated scFvs to a peptide of the spike HR2 region

From the AlphaSeq antibody data of Engelhart et al. 2022 (doi:10.1038/s41597-022-01779-4), copy in the FLAb collection.

Binding partner: SARS-CoV-2 spike HR2 peptide, sequence PDVDLGDISGINAS.

Parent: Ab-14, a human scFv built as VH, the linker GGGGSGGGGSGGGGS, VL. Only the CDRs of the heavy chain vary.
VH: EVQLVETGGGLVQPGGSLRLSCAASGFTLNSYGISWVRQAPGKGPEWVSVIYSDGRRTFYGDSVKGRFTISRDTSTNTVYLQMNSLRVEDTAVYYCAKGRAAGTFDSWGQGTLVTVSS
VL: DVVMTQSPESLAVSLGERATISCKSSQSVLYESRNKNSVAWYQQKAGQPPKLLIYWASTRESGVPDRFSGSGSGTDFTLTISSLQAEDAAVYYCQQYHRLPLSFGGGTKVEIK

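The library (AAYL49) carries one to three amino acid substitutions per variant, with no insertions or deletions. AlphaSeq pools MATa yeast showing the antibodies with MATalpha yeast showing the peptide. Binding brings cells together so that they mate, and sequencing counts the barcode pairs among the diploids. Read counts were normalised to the haploid input and turned into Kd by a linear fit to BCL2-family pairs of known affinity, for each replicate. The assay was run in three technical replicates.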

Variants are written as CDR1, CDR2 and CDR3 of the heavy chain (limits as in the source). Parent: GFTLNSYGIS, VIYSDGRRTFYGDSVK, GRAAGTFDS.
The read-out is the apparent dissociation constant on a log10 scale (nM): the lower, the stronger.
A pair that was not seen in that replicate is written "n.d."; this usually means weak binding, but a binder can also be missed.

| # | CDR-H1 | CDR-H2 | CDR-H3 | log10 Kd, replicates | signal with controls |
|---|---|---|---|---|---|
| 1 | GFTLRSYGIS | EFYSDGRRTFYGDSVK | GRAAGTFDS | n.d. n.d. n.d. | 0/9 |
| 2 | GHTLNSMGIS | VIYSDGRRTFYGDSVK | GRAAGTFDS | n.d. 4.67 3.72 | 2/9 (3.71) |
| 3 | GFTLNSYGIS | VIYSDGRRTFYNDTVK | GRAAGTFDS | n.d. n.d. 2.80 | 0/9 |
| 4 | GFLLNSYGIS | VIYSDGRRTFDGDSVK | GRAFGTFDS | n.d. n.d. n.d. | 0/9 |
| 5 | GFTFNSYGIS | VIYSDGRQTFYGDSVK | GRAAGWFDS | n.d. n.d. n.d. | 0/9 |
| 6 | GFTLNSYGIT | VIYSDGRRTFMGDSVK | GRAAGTFGS | n.d. 2.63 n.d. | 2/9 (4.87) |
| 7 | GFTLNSYGIS | VIYSCGRRTFYGDSVW | GRAAGTFDM | n.d. 4.71 n.d. | 1/9 (4.41) |
| 8 | GFTLNSYGRS | VIYEDGRRTSYGDSVK | GRAAGTFDS | n.d. 2.92 4.60 | 3/9 (3.77) |
| 9 | GFTLNSYGIS | VIYSDGRRAFYGDSVK | GRAAGTFDS | 0.71 1.00 0.73 | 0/9 |
| 10 | GFTLNSYGIS | VIYSDGRGTFYGDSNK | GRAAGTFPS | n.d. n.d. n.d. | 0/9 |
| 11 | GFTLESYGIS | VIYSDHRRTCYGDSVK | GRAAGTFDS | n.d. 3.03 n.d. | 1/9 (3.77) |
| 12 | GFILNSYGIS | VQYSDGRRNFYGDSVK | GRAAGTFDS | 3.70 5.55 n.d. | 3/9 (4.02) |
| 13 | GFTLNGYGIS | VIYSDGNRTFYMDSVK | GRAAGTFDS | n.d. 2.15 2.05 | 0/9 |
| 14 | GFTLNSYGIS | VIYSDGRRTFPGDSDK | GRAAGTFDP | n.d. 4.10 n.d. | 2/9 (3.50) |
| 15 | GFTMNLYGIS | VIYSDGRRTFYGDSVK | GRFAGTFDS | n.d. n.d. 4.24 | 7/9 (4.11) |
| 16 | GFTLNSYGIS | VIYSSCRRTFYGDSVK | GDAAGTFDS | n.d. n.d. n.d. | 0/9 |
| 17 | GFTLNSYGIS | VIYSDGRRTFYGDSVK | NRAAGTFDS | n.d. n.d. n.d. | 0/9 |
| 18 | GFTLNSYGIS | VIYSDGRRTFYGDSNK | GRAAGTFDW | n.d. n.d. n.d. | 0/9 |
| 19 | GFTLNPYGIS | VIRSDGRRTFYGDSVA | GRAAGTFDS | n.d. n.d. n.d. | 1/9 (3.97) |
| 20 | GFTLNSYGIW | VIYSDDSRTFYGDSVK | GRAAGTFDS | 6.83 n.d. 5.52 | 5/9 (4.70) |
| 21 | GNTLNSYNIS | VIYSDGRRAFYGDSVK | GRAAGTFDS | 5.53 2.54 n.d. | 0/9 |
| 22 | GPTLNSYGIV | VIYSDGRRTFYGDSVK | GRAAGTFDS | n.d. n.d. n.d. | 0/9 |
| 23 | GFTLNSYHIS | VIYSFGRRTFYGDSVK | GRAAGTFVS | n.d. 4.19 n.d. | 4/9 (4.58) |
| 24 | GFLLNSYGIS | IIYSDGRRTFYGDSWK | GRAAGTFDS | 3.09 3.43 n.d. | 1/9 (3.36) |
| 25 | GFTLNSYGHS | VIYSDGRRTFYGDSVK | QNAAGTFDS | 4.05 n.d. n.d. | 5/9 (4.38) |
| 26 | GFTLNSYFIS | VIMSDGRRTFYGDSVK | GRAAGTFDS | n.d. n.d. n.d. | 3/9 (3.93) |
| 27 | GFTIQSYGIS | VIYSDGRRTFYIDSVK | GRAAGTFDS | 1.53 1.26 1.32 | 0/9 |
| 28 | GFTLNWYGIS | VIYSDGRRTGYGDSVK | GNAAGTFDS | 1.65 1.67 1.90 | 0/9 |
| 29 | GFTLNSYGIS | VSYSDGRRTFYGDSVK | GRAAGTGDS | n.d. n.d. n.d. | 2/9 (2.77) |
| 30 | GFTLYSYGIS | VIYSDGRRTFYGDCVK | GRAAGTFKS | n.d. n.d. n.d. | 0/9 |
| 31 | GFTLNSYGIS | FIYSDGRRTFYGDSVR | GRAPGTFDS | n.d. n.d. n.d. | 0/9 |
| 32 | SFTLNSYGIS | TIYSDGRRTFYGDSVK | GRAAGTFDH | n.d. n.d. n.d. | 1/9 (3.24) |
| 33 | GFTLNSYGIS | VIYSDGRRTWYGDSVK | GRAANTFDI | 4.00 3.01 3.98 | 5/9 (5.18) |
| 34 | GFTLISYGIS | VIYSDGRRTFYGDSVK | GRARKTFDS | 3.62 4.04 3.62 | 4/9 (4.51) |
| 35 | GFTLNSYTIS | VIYSDGRRTFYGDSVA | GRHAGTFDS | n.d. n.d. n.d. | 3/9 (3.65) |
| 36 | GFTLKSYGIS | VIYSDGRRTFYGDSMK | GRAAGTFDS | n.d. 4.44 5.81 | 1/9 (3.38) |
| 37 | GFTLNSYGES | VIYSDGRRTFYGDLVK | GRAAGTFDS | n.d. n.d. n.d. | 0/9 |
| 38 | CDTLNSYGIS | VIYSDGRRTFYGDSPK | GRAAGTFDS | 4.36 3.17 3.72 | 2/9 (4.03) |
| 39 | GFMLNSCGIS | VIYSDGRRTKYGDSVK | GRAAGTFDS | n.d. n.d. n.d. | 0/9 |
| 40 | GFTLNSYGIS | VIYSDKRRFFYGDSVK | GRAAGTFDC | n.d. n.d. n.d. | 1/9 (3.84) |
| 41 | GFTLNAYGIS | VIYSDGGRNFYGDSVK | GRAAGTFDS | n.d. n.d. 4.85 | 0/9 |
| 42 | SFTLNSYGIS | VIYSDGRRTFYGDSVK | GRAAGTFDD | 1.27 0.97 0.96 | 0/9 |
| 43 | DFTLNSYGIS | VNYSDGRRTFYGDSVK | GRAAGTFDS | n.d. n.d. 5.55 | 2/9 (4.06) |
| 44 | GFTLNSYGIA | VIYSTGRRTFYGDSVK | GRAAITFDS | n.d. n.d. n.d. | 0/9 |

Repeated from above, the 5 best binders with a signal in all replicates:

| CDR-H1 | CDR-H2 | CDR-H3 | log10 Kd, replicates | signal with controls |
|---|---|---|---|---|
| GFTLNSYGIS | VIYSDGRRAFYGDSVK | GRAAGTFDS | 0.71 1.00 0.73 | 0/9 |
| SFTLNSYGIS | VIYSDGRRTFYGDSVK | GRAAGTFDD | 1.27 0.97 0.96 | 0/9 |
| GFTIQSYGIS | VIYSDGRRTFYIDSVK | GRAAGTFDS | 1.53 1.26 1.32 | 0/9 |
| GFTLNWYGIS | VIYSDGRRTGYGDSVK | GNAAGTFDS | 1.65 1.67 1.90 | 0/9 |
| GFTLNSYGIS | VIYSDGRRTWYGDSVK | GRAANTFDI | 4.00 3.01 3.98 | 5/9 (5.18) |

Nonspecific signal, from three strains lacking the peptide, appeared in 15% of pairings of library AAYL49, centred on 4.06 (5% of these signals below 2.83); values are not corrected for it. The control count says in how many pairings with the empty strains this scFv gave a signal, with their mean in brackets.
For reference, the parent read 0.65 as the reference entry and 4.11 (one replicate of three) as a member of this library.